Laboratory results as given in ChEMBL document CHEMBL4130567, “Discovery of Thiophene[3,2-d]pyrimidine Derivatives as Potent HIV-1 NNRTIs Targeting the Tolerant Region I of NNIBP” (ACS Med Chem Lett, 2017).

Biological target: Human immunodeficiency virus type 1 reverse transcriptase (Human immunodeficiency virus 1, UniProt Q72547)
Test: Inhibition of recombinant wild type HIV1 reverse transcriptase using DIG-labeled dUTP/biotin-labeled dUTP and dTTP as template and viral nucleotides assessed as decrease in biotin-dUTP incorporation after 1 hr by ELISA

## Cc1cc(C#N)cc(C)c1Oc1nc(Nc2ccc(C#N)cc2)nc(N)c1Br [ETRAVIRINE]
  IC50: 1 µM
